Experimental data from patent publication US20160033699A1, “POLARIZING PLATE” (NITTO DENKO CORPORATION, priority 2014, published 2016).

Experiment: log P value (octanol/water partition coefficient)

Substance: bisphenol A-ethylene oxide (4 mole) adduct di(meth)acrylate
- log P: 5.15
